In ChEMBL document CHEMBL4421732, “Use of small molecule inhibitors targeting EYA tyrosine phosphatase” (2017):

Species: Homo sapiens
Experiment: Selectivity index, ratio of IC50 for inhibition of PTP1B (unknown origin) using para-nitrophenol phosphate substrate incubated for 30 mins to IC50 for inhibition of poly-histidine and GST-tagged full length human Eya3 isoform 2 (127 to 573 residues) using para-nitrophenol phosphate substrate incubated for 30 mins

Ratio IC50: 4.7 to 6.5
SMILES: CCc1oc2ccccc2c1C(=O)c1cc(Br)c(O)c(Br)c1
